Hits are enriched below; roughly 1.9% of the tested compounds scored in any of these assays.
UUG fidelity – alters start codon recognition fidelity in yeast. S. cerevisiae UUG-firefly luciferase reporter, luminescence/redox ratio. AID 602363. activity score, % at 18.7 µM. hit rate 0.13% among 350,000;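 active = replicate mean at a twofold rise or more, about +100% in these data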;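 note: firefly luciferase made from a UUG start codon reports start codon fidelity; reporter light over untreated wells divided by growth signal over untreated wells; some hits fall short of that in this replicate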
ARNT-TACC3 inh – disruptors of ARNT/TACC3 protein interaction, primary screen, biochemical, AlphaScreen, single concentration | AID 623870, 2012 | Transforming acidic coiled-coil-containing protein 3 (Homo sapiens), Q9Y6A5 | inhibition, % at 9.99 µM | AlphaScreen His-ARNT PAS-B/GST-TACC3 binding, luminescence; TACC3 fragment carries E629A point mutation | 390,000 tested, 0.66% active;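 active means mean inhibition of replicates at least 50% and at least half of replicates each reaching 50%; inconclusive means half or more replicates reach 50% but mean below 50%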;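 further: 0% = complete ARNT plus TACC3 wells and 100% = ARNT alone without TACC3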
PDI turbidity – inhibitors of human PDI, primary screen, biochemical, turbidity, single point, plate reader; Protein disulfide-isomerase (Homo sapiens), P07237; PDI insulin aggregation turbidity, A650, 90 min; inhibition, % at 10 µM; 350,000 tested, 0.052% active; AID 588391, 2011;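 active means mean inhibition across replicates of 30% or more, whatever share of single replicates reach that level; inconclusive means mean inhibition below 30% while every single replicate reaches 30%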
PglD DTNB – C. jejuni PglD acetyltransferase inhibitors, primary screen, biochemical, DTNB colorimetric, single point; UDP-N-acetylbacillosamine N-acetyltransferase PglD (Campylobacter jejuni); purified PglD enzyme, DTNB colorimetric CoA detection; inhibition, % at 12.5 µM; 360,000 tested, 0.098% active; AID 602405, 2012; in the data active means inhibition above about 16%, passing the limit was not always enough; inconclusive means no clear call, values can overlap the other calls
FGF22 binding-1 – binders of human FGF22 protein, primary screen, FGF22 synaptogenesis inhibitor project, biophysical, thermal shift, single point. recombinant FGF22 thermal shift, SYPRO orange fluorescence; percent of sucrose octasulfate shift, DMSO zero. activity (Tm shift, normalised), % at 9.99 µM. 340,000 tested, 1.5% active. AID 651658, 2012;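 active means mean Tm shift, scaled 0 neutral to 100 positive control, at about 1.3% or above, every replicate too, limit read from the data; inconclusive means no clear call, values can overlap the other calls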
ERp5 inh – inhibitors of ERp5-driven insulin aggregation, primary screen, biochemical, turbidity, absorbance 650 nm, single point | Protein disulfide-isomerase A6 (Homo sapiens), Q15084 | 90 min | inhibition, % at 9.99 µM | 350,000 tested, 0.05% active | AID 651711, 2012;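 active means mean replicate inhibition above about 25%, with every replicate also reaching it, limit read from the data, passing the limit was not always enough; inconclusive means only one of those two criteria met; inactive means neither criterion met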
FGF22 binding-2 – binders of human FGF22 protein, dose response, FGF22 synaptogenesis inhibitor project, biophysical, thermal shift, cherry-pick retest; shares compounds with FGF22 binding-1; recombinant FGF22 thermal shift, SYPRO orange fluorescence; thermal shift activity, °C (ΔTm) at 38 µM; 1,000 tested, 2% active; AID 720646, 2013;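 active means fitted rise in melting shift crosses a set limit at or below the top valid dose tested; inconclusive means flat fit at mid-level activity, or a poor quality fit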
SYPRO no-protein – compound-only thermal shift signal without protein, dose response, artefact control for FGF22 binder project, biochemical, cherry-picked samples, RT-PCR instrument | shares compounds with FGF22 binding-1 | compound-only SYPRO orange thermal shift counter-screen, no protein | AC50, µM (doses to about 38 µM) | 1,000 tested, 2% active | AID 743019, 2013;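 active means rising signal whose fitted curve reaches the 0.54 level within the top valid dose, showing a melting point, actives reach about 13 µM in these data; inactive means the rest, including activity in the opposite direction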; further: value is where the raw curve crosses a fixed level and not half-maximal
Starred values were filed as active, the others as inactive; i = inactive; ? = inconclusive; . = no result; ! = not active in a repeat; [ ] = remark or other dose.

Field names – A = UUG fidelity; B = ARNT-TACC3 inh; C = PDI turbidity; D = PglD DTNB; E = FGF22 binding-1; F = ERp5 inh; G = FGF22 binding-2; H = SYPRO no-protein
Cc1ccc(O)c(/C=N/NC(=O)c2[nH]ncc2Br)c1
  A: -19 | B: 9 | C: 8 | D: 1 | E: 0 | F: ? | G: . | H: .
O=C(N/N=C/c1c(O)ccc2ccccc12)c1[nH]ncc1Br
  A: . | B: 35 | C: 1 | D: . | E: 1.3* | F: -1 | G: -0.32 | H: i
COc1ccc(/C(=N\Nc2ccccc2C(=O)O)c2ccccc2)cc1
  A: . | B: -4 | C: 8 | D: . | E: 1.8* | F: 2 | G: 0.19 | H: i
O=C(C[C@H]1C=C[C@H](NS(=O)(=O)c2ccc(F)cc2)[C@@H](CO)O1)NC1CCC1
  A: -5 | B: -18 | C: . | D: -7 | E: 0 | F: -9 | G: . | H: .
O=C(Cn1[nH]c(=O)c2ccccc2c1=O)Nc1cccnc1
  A: . | B: -1 | C: -1 | D: . | E: 2.2* | F: -1 | G: 0.082 | H: i
NC(=O)c1cccnc1Nc1ccccc1F
  A: . | B: . | C: -10 | D: . | E: 1.4* | F: -1 | G: 0.11 | H: i
NC(=O)NC(=O)COC(=O)c1cccnc1Nc1ccccc1F
  A: -15 | B: 0 | C: 7 | D: 3 | E: 0 | F: -8 | G: . | H: .
Cc1ccc(NC(=O)C2CCCN2C(=O)Oc2ccccc2)c(C)c1 (centres undefined)
  A: 0 | B: -8 | C: 5 | D: 1 | E: 2.2* | F: 5 | G: -0.007 | H: i
C[C@@H]1CCCCO[C@@H](CN(C)S(=O)(=O)c2cn(C)cn2)[C@@H](C)CN([C@@H](C)CO)C(=O)c2cc(NC(=O)Nc3ccccc3)ccc2O1
  A: 9 | B: 4 | C: . | D: 1 | E: 0 | F: -1 | G: . | H: .
COc1ccc(NS(=O)(=O)c2cc3c4c(c2)CCN4C(=O)CC3)cc1OC
  A: . | B: 0 | C: 7 | D: . | E: . | F: . | G: . | H: .
COc1ccc(S(=O)(=O)Nc2cc3c4c(c2)CCN4C(=O)CC3)cc1OC
  A: 4 | B: 4 | C: -1 | D: 10 | E: 12* | F: 1 | G: -0.008 | H: i
COc1cccc(CNC(=O)C2(C)CCCCN2C)c1 (centres undefined)
  A: -7 | B: . | C: 0 | D: -2 | E: 2.6* | F: 6 | G: -0.1 | H: i
COc1cccc(CNC(=O)C2(C)CCCN2C(=O)C(C)C)c1 (centres undefined)
  A: -15 | B: . | C: -1 | D: -4 | E: 0 | F: 8 | G: . | H: .
CNC[C@H]1Oc2ccc(NC(=O)Nc3ccc(OC)cc3)cc2C(=O)N([C@H](C)CO)C[C@@H]1C
  A: 1 | B: -1 | C: . | D: 1 | E: 1.4* | F: -4 | G: 0.098[42 µM] | H: i
CNC[C@H]1Oc2ccc(NC(=O)C3CCCCC3)cc2C(=O)N([C@@H](C)CO)C[C@H]1C
  A: 18 | B: -1 | C: . | D: -4 | E: 1.2* | F: -2 | G: 0.17[42 µM] | H: i
N#C[C@@H]1[C@H](c2ccc(-c3cccc(F)c3)cc2)[C@@H](CO)N1C(=O)NC1CCCCC1
  A: . | B: . | C: . | D: . | E: . | F: -3 | G: . | H: .
CO[C@H]1CN(C)C(=O)c2cc(NC(=O)NC(C)C)ccc2OC[C@@H](C)N(C(=O)CN(C)C)C[C@H]1C
  A: -5 | B: 3 | C: . | D: 0 | E: . | F: -5 | G: . | H: .
COc1cc(CCC(=O)OCC(=O)Nc2ccc(Br)cc2F)cc(OC)c1OC
  A: 1 | B: . | C: -11 | D: -3 | E: 0 | F: 2 | G: . | H: .
COc1cc(CCC(=O)OCC(=O)Nc2ccc(C)cc2Br)cc(OC)c1OC
  A: -5 | B: -4 | C: 3 | D: -1 | E: 28* | F: -2 | G: 0.003 | H: i
CN1C(=O)c2cc(NC(=O)C3CCCCC3)ccc2OC[C@@H]2O[C@@H](CC(=O)NCc3ccccc3F)CC[C@H]21
  A: . | B: -6 | C: . | D: 0 | E: 0 | F: 1 | G: . | H: .
CCCNC(=O)N1CC(=O)N2[C@H](CO)[C@@H](c3ccc(C#Cc4cccc(F)c4)cc3)[C@@H]2C1
  A: . | B: . | C: . | D: . | E: . | F: 0 | G: . | H: .
OC[C@@H]1[C@H](c2ccccc2)C2(CN(CCC(F)(F)F)C2)N1Cc1cccnc1
  A: . | B: . | C: . | D: . | E: 0 | F: -4 | G: . | H: .
O=C(Nc1ccc(Cl)cc1)N[C@H]1CC[C@@H](CCNC(=O)c2cc(Cl)cc(Cl)c2)O[C@H]1CO
  A: . | B: . | C: . | D: . | E: . | F: 1 | G: . | H: .
O=C(NCC[C@H]1CC[C@@H](NC(=O)C2CCOCC2)[C@H](CO)O1)Nc1ccc(Cl)cc1
  A: -10 | B: . | C: . | D: 9 | E: 1.7* | F: -4 | G: -0.092[42 µM] | H: i
Cc1ccc(S(=O)(=O)N[C@H]2CC[C@H](CCNC(=O)C3CCOCC3)O[C@H]2CO)cc1
  A: 1 | B: -1 | C: . | D: 5 | E: 2.0* | F: 0 | G: 0.44[42 µM] | H: i

Quoted at random: three records from the list
Field names – A = UUG fidelity; B = ARNT-TACC3 inh; C = PDI turbidity; D = PglD DTNB; E = FGF22 binding-1; F = ERp5 inh; G = FGF22 binding-2; H = SYPRO no-protein
COc1cc(CCC(=O)OCC(=O)Nc2ccc(Br)cc2F)cc(OC)c1OC
  A: 1 | B: . | C: -11 | D: -3 | E: 0 | F: 2 | G: . | H: .
COc1cccc(CNC(=O)C2(C)CCCN2C(=O)C(C)C)c1 (centres undefined)
  A: -15 | B: . | C: -1 | D: -4 | E: 0 | F: 8 | G: . | H: .
COc1cc(CCC(=O)OCC(=O)Nc2ccc(C)cc2Br)cc(OC)c1OC
  A: -5 | B: -4 | C: 3 | D: -1 | E: 28* | F: -2 | G: 0.003 | H: i

Remaining list, next part
Field names – A = UUG fidelity; B = ARNT-TACC3 inh; C = PDI turbidity; D = PglD DTNB; E = FGF22 binding-1; F = ERp5 inh; G = FGF22 binding-2; H = SYPRO no-protein
O=C(NCC[C@H]1CC[C@@H](NC(=O)C2CCOCC2)[C@@H](CO)O1)Nc1ccc(Cl)cc1
  A: -9 | B: . | C: . | D: 5 | E: 1.6*! | F: 0 | G: 0.33[42 µM] | H: i
O=C(Nc1ccc(Cl)cc1)N[C@H]1CC[C@H](CCNC(=O)c2cc(Cl)cc(Cl)c2)O[C@@H]1CO
  A: . | B: . | C: . | D: . | E: 2.5* | F: -6 | G: -0.3 | H: i
C[C@@H](NC(=O)C[C@@H]1C=C[C@@H](NC(=O)Nc2ccc3c(c2)OCO3)[C@H](CO)O1)c1ccccc1
  A: . | B: -10 | C: . | D: 7 | E: 0 | F: -4 | G: . | H: .
C/C=C/c1cnc2c(c1)C(=O)N([C@@H](C)CO)C[C@@H](C)[C@@H](CN(C)C(=O)NC1CCCCC1)O2
  A: -2 | B: -2 | C: . | D: 1 | E: 0 | F: -5 | G: . | H: .
CN1CCN(C(=O)[C@@H]2[C@@H](CO)[C@@H]3Cn4c(ccc(-c5ccncc5)c4=O)[C@@H]3N2CC2CC2)CC1
  A: . | B: . | C: . | D: . | E: . | F: 5 | G: . | H: .
CN1C(=O)NC(NS(=O)(=O)c2ccc(N)cc2)(C(F)(F)F)C1=O (centres undefined)
  A: . | B: 1 | C: -9 | D: . | E: 3.8* | F: 3 | G: 0.1 | H: i
O=C(Nc1ccc2snnc2c1)N1CCOCC1
  A: -14 | B: 2 | C: -3 | D: 0 | E: . | F: . | G: . | H: .
S=C(Nc1ccc(N2CCOCC2)cc1)Nc1ccc2snnc2c1
  A: . | B: 1 | C: -4 | D: . | E: 1.6* | F: 1 | G: -0.23 | H: i
CCc1cccc(NS(=O)(=O)c2ccc3c(c2)NC(=O)CC(=O)N3)c1
  A: -10 | B: -9 | C: 2 | D: -3 | E: 1.7* | F: 1 | G: 0.08 | H: i
Cc1cccc(NS(=O)(=O)c2ccc3c(c2)NC(=O)CC(=O)N3)c1
  A: -22 | B: 2 | C: -5 | D: -2 | E: 0 | F: 0 | G: . | H: .
CCc1nnc(NS(=O)(=O)c2ccc(NC(=O)OC)cc2)s1
  A: -14 | B: -3 | C: 8 | D: 3 | E: . | F: . | G: . | H: .
CCc1nnc(NS(=O)(=O)c2ccc(Nc3ccc([N+](=O)[O-])c4nonc34)cc2)s1
  A: . | B: 9 | C: -1 | D: . | E: 2.0* | F: -2 | G: 0.2 | H: i
CCc1nnc(NS(=O)(=O)c2ccc(NC(=O)c3ccc(Br)cc3)cc2)s1
  A: -10 | B: -3 | C: -2 | D: -11 | E: 1.6* | F: -4 | G: 0.019 | H: i

Bioassay records (PubChem BioAssay)
